# Measured affinities in a library of Ab-14 heavy chain variants

The target is the same throughout: PDVDLGDISGINAS, from the HR2 region of SARS-CoV-2 spike.

Ab-14 is the parent antibody, in scFv form: VH, then a 15-residue (Gly4Ser)3 linker, then VL. The light chain is unchanged in all variants.
VH: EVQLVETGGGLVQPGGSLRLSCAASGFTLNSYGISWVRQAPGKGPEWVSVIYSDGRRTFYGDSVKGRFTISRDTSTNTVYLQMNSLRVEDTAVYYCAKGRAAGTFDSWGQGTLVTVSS
VL: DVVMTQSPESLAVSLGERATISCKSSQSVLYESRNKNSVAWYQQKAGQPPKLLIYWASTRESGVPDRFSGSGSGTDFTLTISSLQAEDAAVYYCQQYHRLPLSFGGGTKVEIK

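The parent was found by panning a naive human phage display library on the peptide. Designed CDR sequences, proposed from the first random library and measured here. Group labels follow the data file (Ctrl: baseline library sampled from a position-specific scoring matrix, with some repeated check sequences; Rand: our label for a block that the file lists under HC and that is probably the random mutants of the ten best first-round binders; GP: Gaussian process model; GPLM: also part of the Gaussian process libraries; HC: hill climbing; Gen: genetic algorithm; Gibbs: Gibbs sampling; a sequence that several methods proposed may carry one label only). AlphaSeq pools MATa yeast showing the antibodies with MATalpha yeast showing the peptide. After mating in shaken culture at 30 °C for 16 h, diploids were selected and their barcode pairs sequenced. Read counts were normalised to the haploid input and turned into Kd by a linear fit to BCL2-family pairs of known affinity, for each replicate. The assay was run in six technical replicates.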

Positions count from residue 1 of the parent VH; S31E puts E in place of S.
This list holds designs with at most six substitutions.
Values are log10 of the apparent Kd in nM; lower means stronger binding.
A pair that was not seen in that replicate is written "nd"; this usually means weak binding, but a binder can also be missed.
As a blank, each scFv also met three strains without target: over all heavy chain designs, 1% of these pairings were detected, typically at 2.08 and seldom below 0.84. For each scFv, signals with the empty controls are counted beside the result.

The variant S31E+D106F+S107F [GPLM_HC] showed nd, nd, nd, nd, nd, nd (controls 0 of 18). The variant N30K+D106H+S107M [Ctrl] gave nd, nd, nd, nd, nd, nd (controls 0 of 18). The variant T28W+S31D+A101N [GP_Gen] showed nd, 1.80, nd, 2.02, 0.93, 1.56 (controls 0 of 18). The variant F27Y+G61I+R100Q+A101L [GP_HC] gave nd, nd, nd, nd, nd, nd (controls 0 of 18). The variant T28E+S53A+S63Q+D106K [GP_HC] gave nd, nd, nd, nd, nd, nd (controls 0 of 18).

With I51A+S53A+R56N+F105N+D106K [Rand] the result was nd, nd, nd, nd, nd, nd (controls 2 of 18). With F105V+S107Q [Ctrl] the result was nd, nd, nd, nd, nd, nd (controls 0 of 18). For S31E+R56Q+G61S+T104F [GPLM_HC], the assay gave nd, nd, nd, nd, nd, nd (controls 0 of 18). The variant T28S+S31M+G61I+A101T [GPLM_Gen] gave 1.59, 0.56, nd, nd, 2.61, 1.43 (controls 0 of 18). The variant T28D+G61S+T104H+D106N [GP_HC] gave nd, nd, nd, nd, nd, 2.50 (controls 1 of 18).

For G61S+R100I+G103F+F105V [Ctrl], the assay gave nd, 0.80, -0.24, 0.37, -0.26, 0.54 (controls 1 of 18). For S31N+I34R [Ctrl], the assay gave nd, nd, nd, nd, nd, nd (controls 0 of 18). The variant T28S+S31E+G61A+A101Q [GPLM_Gen] showed -0.21, -0.09, -0.14, 0.13, -0.13, -0.01 (controls 0 of 18). The variant S31E+D106M+S107Q [GP_HC] gave nd, nd, nd, nd, nd, nd (controls 0 of 18). The variant G61A+R100Q+A101T+S107K [GPLM_Gen] gave 1.22, 0.97, 0.77, 0.39, 0.74, 1.07 (controls 0 of 18).

With R56E+G61D+S63D [Ctrl] the result was nd, nd, 1.68, nd, 1.57, nd (controls 0 of 18). With A102T+D106R [Ctrl] the result was nd, nd, nd, nd, nd, nd (controls 0 of 18). The variant D106T+S107D [GP_HC] gave nd, nd, nd, nd, nd, nd (controls 0 of 18). The variant L29Q+T58A+G61D+R100Q+A101L [Rand] showed nd, nd, nd, nd, nd, 1.96 (controls 1 of 18). The variant T28E+S31E+A101Q+S107A [GP_Gen] gave 0.35, 0.24, -0.22, 0.00, 0.01, -0.12 (controls 1 of 18).

For S31E+F59M+G61T+A101C [GP_HC], the assay gave nd, nd, nd, nd, nd, nd (controls 0 of 18). With R100V+A101E [GPLM_Gibbs] the result was nd, 0.60, 0.72, 0.62, nd, 0.87 (controls 0 of 18). With T28D+R56L+R100N [GP_Gibbs] the result was 1.08, 1.06, 0.87, 1.48, 1.02, 0.99 (controls 2 of 18). For S63E+R100F [Ctrl], the assay gave nd, nd, nd, nd, nd, nd (controls 0 of 18). With T28H+S31D+G61Q+A101L [GP_HC] the result was 0.03, 0.32, -0.06, 0.79, 0.24, 0.62 (controls 0 of 18).

The variant G26S+T28N+R100Q+A101T [GP_Gibbs] gave nd, nd, nd, nd, nd, nd (controls 1 of 18). With T28Y+S31E+G61Q+A101F [GP_HC] the result was nd, 1.66, 1.68, nd, 1.60, nd (controls 0 of 18). For T28D+G61D+S63D+A101T [GP_Gibbs], the assay gave 0.03, 0.06, -0.04, -0.48, -0.07, 0.04 (controls 0 of 18). For T28E+R56K+G61A+A101M [GP_Gen], the assay gave 1.27, 1.22, 0.36, 0.33, 0.80, 1.24 (controls 0 of 18). The variant N30Y+R100Q+A101L [GP_HC] showed nd, nd, nd, nd, nd, nd (controls 0 of 18).

With S31M+R56Q+V64S+A101L+A102I+G103C [Ctrl] the result was nd, nd, nd, nd, nd, nd (controls 0 of 18). The variant N30E+S53A+S63A+A101T [GP_Gibbs] gave 0.24, 0.02, 0.62, -0.24, -0.06, 0.64 (controls 0 of 18). The variant L29I+S35T+V50F+G61I+A102T [Ctrl] showed nd, nd, nd, nd, nd, nd (controls 1 of 18). The variant S31M+R56V+S63D+S107W [Ctrl] showed nd, nd, nd, nd, nd, nd (controls 0 of 18). The variant F59W [Ctrl] showed 0.99, 1.18, 0.53, 0.68, 1.44, 0.84 (controls 0 of 18).

With F27H+F59A [Ctrl] the result was 1.63, 1.21, 1.33, 2.12, 1.11, 1.27 (controls 0 of 18). The variant N30E+G61A+R100S [GPLM_Gen] gave 0.34, 0.66, 0.05, 0.43, 0.65, 0.83 (controls 0 of 18).

The authors' rule: three or more of the six replicates give a measured affinity, fewer mean a poor binder.
A sequence measured in both rounds can read differently, since the two assays cover different ranges.

Values reported by Li et al. 2023, doi:10.1038/s41467-023-39022-2 (FLAb copy).